For one compound, PPARγ transactivation results are on record in article PMC3806773, “Discovery of P1736, a Novel Antidiabetic Compound That Improves Peripheral Insulin Sensitivity in Mice Models” (PLoS ONE, 2013).

Amino acid sequences for entries named in this document (tags omitted). Residues count along the entry.
UniProt P37231, 238-503 limits assumed: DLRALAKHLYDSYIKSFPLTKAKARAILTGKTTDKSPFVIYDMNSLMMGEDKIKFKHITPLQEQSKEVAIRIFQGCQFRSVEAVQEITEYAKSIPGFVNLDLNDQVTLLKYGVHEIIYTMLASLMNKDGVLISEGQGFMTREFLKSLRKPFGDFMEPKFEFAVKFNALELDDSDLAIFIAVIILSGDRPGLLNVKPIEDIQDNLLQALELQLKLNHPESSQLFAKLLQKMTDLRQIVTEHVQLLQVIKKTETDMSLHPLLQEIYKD

Where a name gives a salt, the structure may show the parent alone.

For this test, the target named is human PPARγ receptor (Homo sapiens, UniProt P37231). Nature of the test: PPARγ transactivation luciferase reporter gene assay in HEK-293 cells. The following applies: positive control. In general terms: Reporter assays use an easily measured gene product as a stand-in for the process of interest.

As for `CN(CCOc1ccc(CC2SC(=O)NC2=O)cc1)c1ccccn1` (stereo not shown) [Rosiglitazone, rosiglitazone maleate, reference compound], the PPARγ transactivation entry was “marked activation”.
